# Experimental data as given in PubChem BioAssay AID2435 (The Scripps Research Institute Molecular Screening Center, 2010).
# Amino acid sequences for entries named in this document (tags omitted). A change or cut given only in a name is not applied to a line headed by its entry.
# UniProt P30559: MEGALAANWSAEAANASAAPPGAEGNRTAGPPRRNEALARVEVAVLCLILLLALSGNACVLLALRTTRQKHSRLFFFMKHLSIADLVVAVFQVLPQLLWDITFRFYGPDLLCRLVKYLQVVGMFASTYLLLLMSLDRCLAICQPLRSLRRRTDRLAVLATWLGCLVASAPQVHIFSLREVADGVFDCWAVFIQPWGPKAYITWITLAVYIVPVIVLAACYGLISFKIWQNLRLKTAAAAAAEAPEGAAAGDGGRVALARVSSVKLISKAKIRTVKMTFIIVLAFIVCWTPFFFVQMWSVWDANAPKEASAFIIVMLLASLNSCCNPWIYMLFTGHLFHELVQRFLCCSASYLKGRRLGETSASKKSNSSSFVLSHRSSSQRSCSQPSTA
# The list shows a part of the results, in another mix than the full data. Activity calls are given as the source filed them.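 How the source made its calls: active means activation above the mean of all tested compounds plus 3 SD, cutoff set per screening run (cut at about 20% in these data); inactive means the rest.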
# Target: Oxytocin receptor (Homo sapiens) (UniProt P30559)
# Test: human OXTR agonists, primary screen, fluorescence, CHO-OTR cells, Fluo-8 calcium (AID 2435);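 further: peak over basal fluorescence ratio from a 100 s FLIPR kinetic read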
# Settings: Fluo-8 calcium fluorescence, at 3 µM, hits give high values, normalized: DMSO 0%, oxytocin 100%
row,SMILES,activation
1,C[As](=O)(O)c1cccc(C(=O)O)c1,inactive: -0.35%
2,O=[As](O)(c1ccc(O)cc1)c1ccccc1O,inactive: 2.07%
3,Cc1ccc(OP(=O)(Nc2ccc([N+](=O)[O-])cn2)Oc2ccc(C)cc2)cc1,inactive: -0.89%
4,Cc1ccc2nc3c(c(C)c2c1)CC(C(Cl)Cl)S3 (configuration not stated),inactive: -1.82%
5,ClCCSc1nnc(-c2cccnc2)o1,inactive: 1.12%
6,CC(C)c1ccc(OP(=O)(Nc2ccccn2)Oc2ccccc2F)cc1 (configuration not stated),inactive: -1.09%
7,O=[N+]([O-])c1cc([N+](=O)[O-])c(-c2ccn[nH]2)s1,inactive: 0.17%
8,CCN(CC)C(=S)SC(NC=O)C(Cl)(Cl)Cl (configuration not stated),inactive: 1.98%
9,CC(C)NC(=O)NP(=O)(Oc1ccccc1)Oc1ccccc1,inactive: 0.49%
10,O=P(Nc1nc2ccc(Cl)cc2s1)(c1ccccc1)c1ccccc1,inactive: 6.73%
11,O=C(O)c1ccccc1[As](=O)(O)O,inactive: -0.04%
12,CC(=O)Nc1ccc([As](=O)(O)O)cc1,inactive: 1.09%
13,Cc1ccc(NP(=O)(Oc2ccccc2F)Oc2ccccc2F)nc1,inactive: -0.41%
14,CN(C(=O)Cc1ccc(Cl)c(Cl)c1)[C@H]1CCCC[C@@H]1N1CCCC1,inactive: -0.39%
15,CCOP(=O)(Nc1ccccc1)OCC,inactive: 0.39%
16,Cc1cc(SC(NC(=O)c2ccc(F)cc2)C(Cl)(Cl)Cl)ncn1 (configuration not stated),inactive: -0.07%
17,O=[N+]([O-])c1cc([N+](=O)[O-])c(CCN2CCOCC2)c([N+](=O)[O-])c1,inactive: -0.71%
18,CCN(N=Nc1nonc1N)c1nonc1N,inactive: 0.67%
19,Cc1ccc(N/C(=N/P(=O)(N2CCOCC2)N2CCOCC2)N2CCOCC2)cc1,inactive: 0.03%
20,CN(C(=O)Cc1ccc(Cl)c(Cl)c1)[C@H]1CCCC[C@H]1N1CCCC1,inactive: 0.56%
21,NC(=O)c1cc([N+](=O)[O-])cc([N+](=O)[O-])c1N,inactive: 0.03%

row,SMILES,activation
1,Clc1ccc(Cl)c(NC2=NCC(CBr)S2)c1 (configuration not stated),inactive: 0.35%
2,CN1CCCC(OC(=O)C(c2ccccc2)c2ccccc2)C1 (configuration not stated),inactive: 1.23%
3,Cc1ccc(OP(=O)(Nc2nccs2)Oc2ccc(C)cc2)cc1,inactive: -2.74%
4,COc1ccccc1OP(=O)(Nc1ccc(C)cn1)Oc1ccccc1OC,inactive: -0.65%
5,Cc1c2non([O-])c-2c(C)[n+](=O)[n+]1[O-],inactive: 10.3%
6,O=C(NC(Sc1ccncn1)C(Cl)(Cl)Cl)c1ccccc1 (configuration not stated),inactive: -0.63%
7,Oc1ccccc1CNc1ccccn1,inactive: 0.54%
8,CC(C)CC(=O)NC(Sc1ccc(Cl)cc1)C(Cl)(Cl)Cl (configuration not stated),inactive: -2.32%
9,Nc1cc(N)c2nonc2c1[N+](=O)[O-],inactive: 1%
10,COc1ccc(C2=NCC(CBr)S2)cc1 (configuration not stated),inactive: 1.46%
11,CCc1nc2c(n1)c1c(non1O)c1c2no[n+]1[O-],inactive: 7.21%
12,O=[N+]([O-])c1cc([N+](=O)[O-])c(CCNc2ccccc2)c([N+](=O)[O-])c1,inactive: -1.77%
13,Cc1ccc(NP(=O)(Oc2ccccc2)Oc2ccccc2)nc1,inactive: -2.63%
14,O=[N+]([O-])c1cccc2n[nH]nc12,inactive: 0.16%
15,CC(=O)N1C2C3N(C(C)=O)C1C1N(C(C)=O)C(C(N1C(C)=O)N3C(C)=O)N2C(C)=O,inactive: 0.39%
16,CCN(/C(=N/P(=O)(N1CCOCC1)N1CCOCC1)N1CCOCC1)c1ccc(OC)cc1,inactive: 0.73%
17,C[N+]1=C2C=CC=CC=C2SC12C([N+](=O)[O-])=CC([N+](=O)[O-])=C[C-]2[N+](=O)[O-] (configuration not stated),inactive: 1.03%
18,Nc1ccc([As](=O)(O)c2ccc(N)cc2)cc1,inactive: 0.01%
19,CC1CCN(C(=O)Oc2c(Cl)cc(Cl)c3cccnc23)CC1,inactive: -2.35%
20,CN(C)C(=O)OCCc1n(C)cc[n+]1C,inactive: -0.09%
21,CC(C)=N/N=C(\N)N[N+](=O)[O-],inactive: 0.96%

row,SMILES,activation
1,O=C(Nc1cc([As](=O)(O)O)ccc1O)c1ccccc1,inactive: 0.77%
2,O=[N+]([O-])c1ncn(CCn2ncnc2[N+](=O)[O-])n1,inactive: 0.8%
3,CC(C)(C)C(=O)NC(Sc1ccncn1)C(Cl)(Cl)Cl (configuration not stated),inactive: 0.9%
4,O=[N+]([O-])c1cccc(NC2=NCC(CBr)S2)c1 (configuration not stated),inactive: -0.16%
5,O=P(Nc1ccccn1)(c1ccc(Br)cc1)c1ccc(Br)cc1,inactive: -0.25%
6,CN(C)C1(CNC(=O)c2ccc(Cl)c(S(N)(=O)=O)c2)CCCCC1,inactive: 1.04%
7,C[C@H]1OP(=O)(Oc2ccccc2)[C@H](O)[C@H](O)[C@H]1N=[N+]=[N-] (some centres not stated),inactive: 0.65%
8,O=P(Nc1nc2ccccc2s1)(c1ccccc1)c1ccccc1,inactive: -0.43%
9,O=[As](O)(c1ccccc1)c1ccc(O)cc1,inactive: 0.13%
10,O=[N+]([O-])c1ccc(O)c(/C=N/Nc2ccc([N+](=O)[O-])cc2[N+](=O)[O-])c1,inactive: 8.45%
11,O=[N+]([O-])c1ncn(CCn2cnc([N+](=O)[O-])n2)n1,inactive: -0.19%
12,CC(=O)NC(SC(=S)N(C)C)C(Cl)(Cl)Cl (configuration not stated),inactive: 1.49%
13,O=C(OC1CN2CCC1CC2)c1cccc(Cl)c1 (configuration not stated),inactive: 1.76%
14,Nc1ccc([As](=O)(O)c2ccc([N+](=O)[O-])cc2)cc1,inactive: -0.07%
15,C(Cc1nn[nH]n1)Cc1nn[nH]n1,inactive: 0.59%
16,CC(C)C(=O)NC(Sc1ccccc1)C(Cl)(Cl)Cl (configuration not stated),inactive: -1.57%
17,O=P(Nc1nccs1)(c1ccccc1)c1ccccc1,inactive: 0.37%
18,c1nnnn1CCn1cnnn1,inactive: 0.96%
19,CCOc1ccc(C2=NCC(CBr)S2)cc1 (configuration not stated),inactive: 0.43%
20,O=P1(Nc2nc3ccc(Cl)cc3s2)COc2ccccc2O1 (configuration not stated),inactive: 0.26%
21,CC(C)(C)C(=O)NC(Sc1ccccc1)C(Cl)(Cl)Cl (configuration not stated),inactive: -2.95%

row,SMILES,activation
1,C[C@@H]1C=CCP(=O)(Oc2ccccc2)O1 (some centres not stated),inactive: -0.14%
2,C[C@H]1OP(=O)(Oc2ccccc2)C[C@@H]2O[C@@H]21 (some centres not stated),inactive: 0.28%
3,Cc1ccccc1CN(C)C(=O)COC(=O)C(O)(c1ccccc1)c1ccccc1,inactive: 1.03%
4,CC(=O)c1ccc(N2CC2c2ccncc2)cc1 (configuration not stated),inactive: 1.32%
5,CC(=O)Nc1ccc(Oc2c([N+](=O)[O-])cc([N+](=O)[O-])cc2[N+](=O)[O-])cc1,inactive: -0.4%
6,CC(=O)Nc1ccc([As](=O)(O)O)c(O)c1,inactive: 0.52%
7,CCOC(=O)NC(Sc1ccccc1)C(Cl)(Cl)Cl (configuration not stated),inactive: -2.31%
8,Cc1ccc(NP(=O)(Oc2cccc(C)c2)Oc2cccc(C)c2)nc1,inactive: -0.28%
9,c1ccc(-c2nn[nH]n2)c(-c2nn[nH]n2)c1,inactive: 1.35%
10,CCNC(=S)/N=C(\N)N[N+](=O)[O-],inactive: 0.8%
11,O=C(NC1CCS(=O)(=O)C1)NP(=S)(Oc1ccccc1)Oc1ccccc1 (configuration not stated),inactive: 0.28%
12,CCC(=O)N1C2C3N(C(=O)CC)C1C1N(C(=O)CC)C(C(N1C(=O)CC)N3C(=O)CC)N2C(=O)CC,inactive: -0.17%
13,O=C(OC1CN2CCC1CC2)c1ccccc1 (configuration not stated),inactive: 0.65%
14,Cc1ccc(OP(=O)(Nc2ccccn2)Oc2ccc(C)cc2)cc1,inactive: 1.17%
15,CC(=O)NC(SC(=S)N(CC(C)C)CC(C)C)C(Cl)(Cl)Cl (configuration not stated),inactive: -0.08%
16,COC(=O)c1cc2c(s1)N=C(c1ccccc1)N(C)P2(=O)N1CCOCC1 (configuration not stated),inactive: -0.96%
17,CN(C)C(=O)Oc1noc2ccccc12,inactive: 0.3%
18,Cc1ccccc1OP(=O)(Nc1ccccn1)Oc1ccccc1C,inactive: 0.02%
19,CC(NC(=O)COC(=O)C(O)(c1ccccc1)c1ccccc1)c1ccccc1 (configuration not stated),inactive: 2.71%
